The numbers were not newly measured in paper PMC4624855, which cites them from elsewhere.

Chains of the proteins cited; added tags and fusions are not shown.
UniProt P15692, whole entry: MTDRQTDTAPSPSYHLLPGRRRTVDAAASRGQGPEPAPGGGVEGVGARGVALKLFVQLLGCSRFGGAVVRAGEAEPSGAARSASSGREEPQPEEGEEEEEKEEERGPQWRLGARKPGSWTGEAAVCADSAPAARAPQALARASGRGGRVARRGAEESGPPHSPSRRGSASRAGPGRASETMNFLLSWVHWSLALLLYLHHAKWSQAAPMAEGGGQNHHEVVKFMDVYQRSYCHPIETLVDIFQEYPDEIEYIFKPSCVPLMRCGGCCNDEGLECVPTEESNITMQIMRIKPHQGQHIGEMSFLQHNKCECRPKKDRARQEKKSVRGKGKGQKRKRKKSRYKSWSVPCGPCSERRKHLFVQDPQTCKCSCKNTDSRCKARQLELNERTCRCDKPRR

The data set deals with VEGFA (Homo sapiens) (UniProt P15692).

Turning to Bevacizumab Fab, the dissociation constant (Kd) (usually the concentration at which binding is half-saturated) is 0.058 nM.
